pIC50: −log10 of the molar value.
Biological target: T1, acetylcholinesterase (Rattus norvegicus, UniProt P37136)
T1 sequence (P37136 32-614): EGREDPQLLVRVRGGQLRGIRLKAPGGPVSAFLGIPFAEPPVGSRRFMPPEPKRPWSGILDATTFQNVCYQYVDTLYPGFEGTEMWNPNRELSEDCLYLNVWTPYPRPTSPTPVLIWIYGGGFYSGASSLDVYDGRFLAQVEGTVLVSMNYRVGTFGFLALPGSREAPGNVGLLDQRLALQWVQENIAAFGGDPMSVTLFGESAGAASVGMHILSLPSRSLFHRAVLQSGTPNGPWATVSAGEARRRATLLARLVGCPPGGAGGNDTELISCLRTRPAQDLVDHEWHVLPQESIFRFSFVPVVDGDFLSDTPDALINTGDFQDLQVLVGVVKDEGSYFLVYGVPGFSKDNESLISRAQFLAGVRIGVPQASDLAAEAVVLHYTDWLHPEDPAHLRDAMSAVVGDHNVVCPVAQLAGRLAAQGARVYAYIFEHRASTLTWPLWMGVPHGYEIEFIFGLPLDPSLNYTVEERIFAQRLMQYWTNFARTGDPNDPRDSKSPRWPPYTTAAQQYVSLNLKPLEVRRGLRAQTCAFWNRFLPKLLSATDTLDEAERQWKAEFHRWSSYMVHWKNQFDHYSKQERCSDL
Details: AChE in vitro
Procedure: Cholinesterases are found throughout the body, both in the brain and in serum. However, only brain acetylcholinesterase (AChE) distribution is correlated with central cholinergic innervation.
The method described below was used in this invention for assaying cholinesterase activity. This is a modification of the method of Ellman et al., Biochem. Pharmacol. 7, 98 (1961).
• A. Reagents - • 1. 0.05 M Phosphate buffer, pH 7.2 • (a) 6.85 g NaH2PO4•H2O/100 ml distilled H2O • (b) 13.40 g Na2HPO4•7H2O/100 ml distilled H2O • (c) add (a) to (b) until pH reaches 7.2 • (d) Dilute 1:10 • 2. Substrate in buffer • (a) 198 mg acetylthiocholine chloride (10 mM) • (b) q.s to 100 ml with 0.05 M phosphate buffer, pH 7.2 (reagent 1) • 3. DTNB in buffer • (a) 19.8 mg 5,5-dithiobisnitrobenzoic acid (DTNB) (0.5 mM) • (b) q.s. to 100 ml with 0.05 M phosphate buffer, pH 7.2 (reagent 1) • 4. […] If active, IC50 values are determined from the inhibitory activity of subsequent concentrations. • B. Tissue Preparation- Male Wistar rats are decapitated, brains rapidly removed, copora striata disected free, weighed and homogenized in 19 volumes (approximately 7 mg protein/ml) of 0.05 M phosphate buffer, pH 7.2 using a Potter-Elvehjem homogenizer. […] Assay- Enzyme activity is measured with the Beckman DU-50 spectrophotometer. […]

For “(3aS-cis)-1,2,3,3a,8,8a-hexahydro-1,3a,8-trimethylpyrrolo[2,3-b]indol-5-ol,(1,2,3,4-tetrahydroisoquinolinyl)carbamate [Compound A]”, the pIC50 was 7.44.
